Data on two compounds can be found in ChEMBL document CHEMBL1123609, “Synthesis, conformational considerations, and estrogen receptor binding of diastereoisomers and enantiomers of 1-[4-[2-(dimethylamino)ethoxy]phenyl]-1,2-diphenylbutane (dihydrotamoxifen)” (1987).

Protein sequences, listed by entry. Tags and fused reporters are not part of them.
UniProt Q92731, whole entry, looked up: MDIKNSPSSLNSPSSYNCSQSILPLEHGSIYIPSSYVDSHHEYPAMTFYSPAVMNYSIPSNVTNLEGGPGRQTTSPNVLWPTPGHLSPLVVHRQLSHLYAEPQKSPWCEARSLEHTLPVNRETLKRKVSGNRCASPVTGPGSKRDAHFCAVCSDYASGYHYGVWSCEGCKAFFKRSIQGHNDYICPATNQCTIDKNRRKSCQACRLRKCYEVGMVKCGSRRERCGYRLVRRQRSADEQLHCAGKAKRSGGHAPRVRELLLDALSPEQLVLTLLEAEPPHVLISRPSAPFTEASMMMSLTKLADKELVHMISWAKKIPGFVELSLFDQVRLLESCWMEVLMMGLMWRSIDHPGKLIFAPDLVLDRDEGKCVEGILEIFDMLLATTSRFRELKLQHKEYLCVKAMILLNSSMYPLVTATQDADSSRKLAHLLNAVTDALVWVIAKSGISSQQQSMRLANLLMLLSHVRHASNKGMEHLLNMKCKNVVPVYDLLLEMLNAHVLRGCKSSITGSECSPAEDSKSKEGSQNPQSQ
UniProt P03372, whole entry, looked up: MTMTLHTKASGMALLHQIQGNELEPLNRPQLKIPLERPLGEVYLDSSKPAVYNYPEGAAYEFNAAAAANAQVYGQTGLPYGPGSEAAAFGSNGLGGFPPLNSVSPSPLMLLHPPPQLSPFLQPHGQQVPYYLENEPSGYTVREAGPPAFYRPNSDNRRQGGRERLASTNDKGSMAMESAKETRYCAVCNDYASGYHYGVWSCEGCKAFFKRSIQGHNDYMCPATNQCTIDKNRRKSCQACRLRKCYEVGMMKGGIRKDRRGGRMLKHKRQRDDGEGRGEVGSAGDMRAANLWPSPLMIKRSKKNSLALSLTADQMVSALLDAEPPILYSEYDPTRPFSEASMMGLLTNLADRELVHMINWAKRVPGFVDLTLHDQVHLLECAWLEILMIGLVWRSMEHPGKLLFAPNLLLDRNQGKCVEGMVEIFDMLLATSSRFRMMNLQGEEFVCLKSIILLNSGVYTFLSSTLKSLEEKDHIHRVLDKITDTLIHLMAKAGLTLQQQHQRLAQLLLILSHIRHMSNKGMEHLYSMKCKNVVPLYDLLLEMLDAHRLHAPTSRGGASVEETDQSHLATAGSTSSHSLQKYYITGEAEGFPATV

The test has as its target Estrogen receptor (Homo sapiens) (UniProt Q92731+P03372). The experiment in a line: Relative binding affinity for estrogen receptor of MCF-7 cells. Particulars: MCF7. The format is cell-based. A digest of the protocol:
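Whole MCF-7 cells incubated 50 min at 37 °C with 10^-9 M [3H]estradiol, without or with test compound or unlabeled estradiol reference (10^-10 to 10^-6 M). Bound material extracted with EtOH and receptor-bound [3H]estradiol measured. RBA calculated as in the calf uterine cytosol competition assay.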

`CC/C(=C(\c1ccccc1)c1ccc(O)cc1)c1ccccc1` yielded a Relative binding affinity of 0.6.
Under `CC/C(=C(/c1ccccc1)c1ccc(O)cc1)c1ccccc1` stands 0.02.
